Test results published in patent US20030198661A1, “Antioxidant compositions and methods for companion animals” (MARS INCORPORATED, priority 2000, published 2003).

Conditions: dog, in vivo

- individual plasma α-tocopherol levels, range: 9 to 39.2 mg/L
SMILES: Cc1c(C)c2c(c(C)c1O)CC[C@@](C)(CCC[C@H](C)CCC[C@H](C)CCCC(C)C)O2 [α-tocopherol]
